Literature values, collected in publication PMC7297817, “Pharmacological Characterization of a Betaine/GABA Transporter 1 (BGT1) Inhibitor Displaying an Unusual Biphasic Inhibition Profile and Anti-seizure Effects” (Neurochemical Research, 2020).

Assays:
Settings in all cases: cited from earlier work
mGAT1 = molecular target: T1, mGAT1 (Mus musculus, UniProt P31648); set-up: method as in PMID 25882526
T1 construct: expressed in transfected cells

mGAT2 = molecular target: T2, mGAT2 (Mus musculus, UniProt P31649); set-up: method as in PMID 25882526
T2 construct: expressed in transfected cells
T2 sequence (P31649 1-602): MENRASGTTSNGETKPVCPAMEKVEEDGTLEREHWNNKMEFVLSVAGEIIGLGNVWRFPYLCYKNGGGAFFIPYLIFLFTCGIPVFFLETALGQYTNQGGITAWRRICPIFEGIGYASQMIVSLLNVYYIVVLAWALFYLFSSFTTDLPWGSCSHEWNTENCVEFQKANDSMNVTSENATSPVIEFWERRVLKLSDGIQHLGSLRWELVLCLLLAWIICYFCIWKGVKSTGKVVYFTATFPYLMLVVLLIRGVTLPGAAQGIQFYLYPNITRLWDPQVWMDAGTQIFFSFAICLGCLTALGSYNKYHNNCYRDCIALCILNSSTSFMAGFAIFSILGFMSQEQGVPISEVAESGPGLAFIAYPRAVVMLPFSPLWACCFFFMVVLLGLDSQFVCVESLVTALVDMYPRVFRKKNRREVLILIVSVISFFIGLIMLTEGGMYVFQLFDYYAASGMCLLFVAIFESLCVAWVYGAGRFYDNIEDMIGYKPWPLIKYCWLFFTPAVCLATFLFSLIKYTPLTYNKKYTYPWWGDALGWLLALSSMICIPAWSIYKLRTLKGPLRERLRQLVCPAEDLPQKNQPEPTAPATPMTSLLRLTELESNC

mGAT3 = molecular target: T3, mGAT3 (Mus musculus, UniProt P31650); set-up: method as in PMID 25882526
T3 construct: expressed in transfected cells
T3 sequence (P31650 1-627): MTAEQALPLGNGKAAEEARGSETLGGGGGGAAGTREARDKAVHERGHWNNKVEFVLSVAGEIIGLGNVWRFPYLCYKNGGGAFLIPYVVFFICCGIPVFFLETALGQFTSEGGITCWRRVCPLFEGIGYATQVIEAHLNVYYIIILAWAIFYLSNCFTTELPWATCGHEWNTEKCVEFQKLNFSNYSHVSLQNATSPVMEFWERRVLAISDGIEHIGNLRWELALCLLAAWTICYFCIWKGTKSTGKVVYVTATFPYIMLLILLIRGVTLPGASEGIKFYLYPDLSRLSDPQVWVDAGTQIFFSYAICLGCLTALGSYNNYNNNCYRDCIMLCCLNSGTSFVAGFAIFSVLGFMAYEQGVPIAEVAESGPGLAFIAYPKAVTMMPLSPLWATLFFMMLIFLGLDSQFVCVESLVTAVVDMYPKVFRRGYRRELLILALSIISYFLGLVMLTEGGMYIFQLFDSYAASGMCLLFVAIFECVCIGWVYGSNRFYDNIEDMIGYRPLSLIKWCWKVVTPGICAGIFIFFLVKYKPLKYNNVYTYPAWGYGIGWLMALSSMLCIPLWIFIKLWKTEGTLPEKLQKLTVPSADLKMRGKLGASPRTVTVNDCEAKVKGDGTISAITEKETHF

mBGT1 = molecular target: T4, mBGT1 (Mus musculus, UniProt P31651)
T4 sequence (P31651 1-614): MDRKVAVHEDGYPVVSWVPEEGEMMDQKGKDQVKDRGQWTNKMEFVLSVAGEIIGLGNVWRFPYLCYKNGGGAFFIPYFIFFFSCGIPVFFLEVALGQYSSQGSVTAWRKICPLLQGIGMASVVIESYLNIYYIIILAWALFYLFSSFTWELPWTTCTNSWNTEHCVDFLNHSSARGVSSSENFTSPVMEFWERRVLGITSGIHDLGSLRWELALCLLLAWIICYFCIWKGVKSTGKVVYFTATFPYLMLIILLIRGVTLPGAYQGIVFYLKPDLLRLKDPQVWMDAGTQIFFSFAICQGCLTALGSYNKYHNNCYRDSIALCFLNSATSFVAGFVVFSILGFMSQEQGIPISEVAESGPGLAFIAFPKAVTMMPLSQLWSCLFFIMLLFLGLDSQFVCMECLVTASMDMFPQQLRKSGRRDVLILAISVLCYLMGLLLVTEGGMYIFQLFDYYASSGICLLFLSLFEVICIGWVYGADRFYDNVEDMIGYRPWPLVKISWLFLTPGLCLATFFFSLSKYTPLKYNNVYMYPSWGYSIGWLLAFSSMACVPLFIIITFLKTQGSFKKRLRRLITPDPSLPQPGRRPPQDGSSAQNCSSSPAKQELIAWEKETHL

## Cc1ccsc1C(=CCCN(C)[C@H]1CCCC[C@H]1C(=O)O)c1sccc1C [SBV2-114, (1R,2S)-2-((4,4-bis(3-methylthiophen-2-yl)but-3-en-yl)(methyl)amino)cyclohexanecarboxylic acid]
mGAT1
  reduced inhibitory potency at mGAT1 relative to mBGT1: about 26 times
mGAT2
  reduced inhibitory potency at mGAT2 relative to mBGT1: ~43 times
mGAT3
  reduced inhibitory potency at mGAT3 relative to mBGT1: ~13 times
mBGT1
  selectivity for BGT1 over the other GAT subtypes: > 13 fold
